Test results: patent EP4825869A1, “CHEMOKINE RECEPTOR 8 ANTAGONISTIC POLYPEPTIDE COMPOUND, COMPOSITION, KIT, AND USE” (dated 2026)
Like-named read-outs stand apart in the source and are kept apart here.

Chains of the proteins cited; added tags and fusions are not shown.
UniProt P51685, whole entry: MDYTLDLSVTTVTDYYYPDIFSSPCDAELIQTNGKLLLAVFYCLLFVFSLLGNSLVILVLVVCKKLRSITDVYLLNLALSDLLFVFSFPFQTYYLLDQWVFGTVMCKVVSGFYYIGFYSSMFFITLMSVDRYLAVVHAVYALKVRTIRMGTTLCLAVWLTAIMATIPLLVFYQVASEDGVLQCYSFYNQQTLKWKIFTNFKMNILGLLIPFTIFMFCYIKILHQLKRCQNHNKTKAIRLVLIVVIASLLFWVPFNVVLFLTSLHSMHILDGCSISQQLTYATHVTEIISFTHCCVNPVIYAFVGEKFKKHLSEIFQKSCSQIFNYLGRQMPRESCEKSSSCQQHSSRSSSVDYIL

What was measured:
[1] = system: atopic dermatitis in mice; experiment: Dose-effect test, drug applied before MC903; settings: topical, qd, 14 days; for dorsal skin lesions of mice: 3mg group (60 mg/mL 50 µL on back, 150 mg/mL 20 µL on ear), compared with the model group
Description: (§1) In the following Experimental Examples 1-2, SPR was used to determine the binding ability of polypeptide compounds to the CCR8 receptor, and the transwell chemotaxis assay was used to evaluate whether polypeptide compounds could inhibit cell migration by blocking the CCL1-CCR8 axis. In the following Experimental Examples 3-5, female Balb/c mice weighing 18-22 g were used; and a solution of 50mM MC903 (calcipotriol) in 75% ethanol was used as a modeling agent. MC903, i.e., calcipotriol, is a low-calcium analog of vitamin D3 widely used for treating psoriasis. Topical application of MC903 can stimulate epithelial keratinocytes in mice to highly express TSLP, promote differentiation of CD4+ T cells into Th2 cells, and activate and release inflammatory cytokines, causing mice to develop an atopic dermatitis phenotype.
After shaving the dorsal skin of mice, MC903 was applied once a day (50 µL was applied on dorsal skin with the area of 2cm*2cm, and 10 µL was applied on each of the inner and outer sides of ear) to induce atopic dermatitis in mice. For mice in the administration groups (including positive control drug group and test compound group), drugs were pre-applied before each application of MC903 to test the preventive effect of drugs on atopic dermatitis.
Test compound solution: DMSO was used to dissolve the drug to a suitable concentration as a stock solution (stock solution for back: 200 mg/mL; stock solution for ear: 500 mg/mL). Then working solutions were prepared according to the following formula (by volume) and stored at 4°C: (1) 10% DMSO stock solution + 40% PEG300 + 5% Tween 80 + 45% NS (normal saline), resulting in final working solution having drug concentrations of: 20 mg/mL of working solution for back; 50 mg/mL of working solution for ear; (2) 30% DMSO stock solution + 40% PEG300 + 5% Tween 80 + 25% NS (normal saline), resulting in final working solution having drug concentrations of: 60 mg/mL of working solution for back; 150 mg/mL of working solution for ear.
Positive control drugs: 0.1 wt% mometasone furoate and 2 wt% crisaborole ointment. […]

[2] = biological target: Human CCR8 full-length protein (VLP) (Homo sapiens, UniProt P51685); experiment: In vitro SPR affinity assay of polypeptide compounds with CCR8 protein; settings: for Ka: PBS with 0.05% Tween 20, association time 120 seconds
Description: Human CCR8 full-length protein (VLP) chips were prepared by amino coupling method. CCR8 full-length protein (VLP) was immobilized on two channels of a CM5 chip. This Experimental Example tested the strength of affinity of polypeptide compounds with CCR8 protein, to confirm their binding ability to the CCR8 receptor.
Vehicle for test compounds (TCR10 and TCR09): PBS solution (containing 0.05% Tween 20).
The polypeptide compounds were formulated into 1 mM solutions as drug stock solutions, and then serially diluted with the PBS solution into working solutions with concentrations of 2.56×10^-2 nM, 0.128 nM, 0.64 nM, 3.2 nM, 16 nM, 80 nM, 400 nM, 2 µM, and 10 µM, using the PBS solution as a blank control at the same time. The working solutions of the above concentrations were captured on the Fc3 and Fc4 channels of the CCR8(VLP)-CM5 chip using the PBS solution. The polypeptide compound samples to be tested at various concentrations and the blank control flowed through the test channels (Fc3 and Fc4) respectively, at a flow rate of 30 µL/min, with an association time of 120 seconds and a dissociation time of 120 seconds. After each test, the chip was regenerated with Gly-HCl buffer of pH 1.5.

[3] = system: interstitial dendritic cells; experiment: Transwell chemotaxis assay, migration of PBMC-derived interstitial dendritic cells
Source text: PBMC-derived interstitial dendritic cells were induced to differentiate, and the migration number of interstitial dendritic cells in the presence or absence of polypeptide compounds was counted using the Transwell chemotaxis assay. This Experimental Example was used to evaluate whether polypeptide compounds block the migration of interstitial dendritic cell through the CCL1-CCR8 axis.
Vehicle for test compound (TCR10): PBS solution + RPMI 1640.
Antibody control: Anti-CCR8 antibody (purchased from Genomeditech, GM-30913AB); Vehicle: RPMI 1640.
CD14^+ monocytes were sorted from human PBMCs using magnetic beads and cultured in the presence of GM-CSF and IL-4 for 6 days to obtain interstitial dendritic cells. Expressions of CD209, CD1α, and CCR8 were detected by flow cytometry. The differentiated interstitial dendritic cells were collected and added to the upper chamber of the transwell. Samples were distributed to the upper and lower chambers of each chamber according to Table 3,wherein in the blank control group (abbreviated as "blank group"), only cells were added; in the positive control group, CCL1 and CXCL12 were added; in the test compound group, test compound plus CCL1 and CXCL12 were added; in the antibody control group, anti-CCR8 antibody plus CCL1 and CXCL12 were added; each group was tested in duplicate. […] Cells that migrated through the chamber were counted using a microscope. […]

[4] = system: Calcipotriol-Induced Mouse Atopic Dermatitis Model; experiment: Drug efficacy screening (preliminary screening), drug applied before MC903; settings: topical, qd, 14 days, after the last administration; for pathological section of mouse dorsal skin: back 50 µL; for pathological section of mouse ear: ear 20 µL
Description: as §1
After shaving the dorsal skin of mice, MC903 was applied once a day (50 µL was applied on dorsal skin with the area of 2cm*2cm, and 20 µL was applied on ear) to induce atopic dermatitis in mice. This Experimental Example was used to test the efficacy of the CCR8 antagonistic polypeptides in the present disclosure for preventing atopic dermatitis.
Vehicle for test compounds (TCR10 and TCR09): Normal saline.
Positive control drugs: 0.3 wt% mometasone gel (glucocorticoid) and KMC420 (JAK inhibitor, 10 mM; vehicle: normal saline).
Mice in the normal control group were only treated with 75% ethanol solution for 14 days without MC903-induced modeling. Mice in the model group were only applied with MC903 every day for 14 consecutive days. During the administration, mice in the positive control drug group and test compound (TCR9 and TCR10) groups were first applied with the positive control drug (application amounts for mometasone gel and KMC420 both were 50 µL on back, and 20 µL on ear (10 µL on each of the inner and outer sides)) or test compound (TCR10 and TCR09, both applied at a concentration of 20 mg/mL with 50 µL on back, and both applied at a concentration of 50 mg/mL with 10 µL on each of the inner and outer sides of the ear) every day. After drying thoroughly, the modeling agent was applied (50 µL was applied on dorsal skin, and 20 µL was applied on ear (10 µL on each of the inner and outer sides) each time), once a day for 14 consecutive days. Table 4 Compound Test Protocol for Drug efficacy Screening Test
Before modeling with MC903, the body weight, remaining food amount, and ear thickness of mice in each group were measured, and then, before daily administration, the body weight, remaining food amount, and ear thickness of mice in each group were measured. Photographs were taken and skin lesions were scored regularly on the ear and dorsal skin. […]

[5] = CCR8(VLP)-CM5 chip, PBS with 0.05% Tween 20
[6] = CCR8(VLP)-CM5 chip, PBS with 0.05% Tween 20, dissociation time 120 seconds
[7] = read-out: affinities binding to human CCR8 protein

Substance	dorsal skin lesions of mice [1]	improvement effect on dorsal skin lesions, comparison among groups ([1]; 3mg group)	Kd [2, 5] [nM]	Ka ([2]; CCR8(VLP)-CM5 chip) [M⁻¹ s⁻¹]	Kd [2, 6] [s⁻¹]	Kd [2, 7] [nM]	decrease in cell migration amount ([3]; 0.5 µg/mL, compared with anti-CCR8 antibody)	migration amount of interstitial dendritic cells (iDCs) ([3]; final concentration 0.5 µg/mL in upper chamber, CCL1 500 ng/mL and CXCL12 1 ng/mL in lower chamber, 5 hours, versus positive control group)	pathological section of mouse dorsal skin [4]	pathological section of mouse ear [4]
H2N-AIB-Arg-Pro-Asp-Lys-Ala-Ala-Leu-Gly-Tyr-Gln-Lys-Arg-Pro-Leu-Pro-Gln-Val-Leu-Leu-Ser-Ser-Ile-CONH2	significantly improve	best improvement effect	17.2	155000	0.002662	17.2	more significant	decreased	widespread epidermis thickening (black arrow) could be observed in the tissue, and scattered lymphocyte and neutrophil infiltration could be observed in the dermis	no obvious abnormalities
H2N-AIB-Arg-Pro-Asp-Lys-Ala-Ala-Leu-Gly-Tyr-Gln-Lys-Arg-Pro-Leu-Pro-Gln-Val-Leu-Leu-Ser-Ser-Val-CONH2	significantly improve		229	3326	0.0007608	229			rare parakeratosis in the stratum corneum (black arrow) and moderate thickening of the epidermis (yellow arrow), and scattered lymphocyte and neutrophil infiltration could be observed in the epidermis and dermis	widespread mild thickening of the epidermis with more pronounced local thickening (black arrow) in the tissue, and mild connective tissue hyperplasia locally in the epidermis (yellow arrow) could be observed, accompanied by lymphocyte and neutrophil infiltration
